Values of other authors in patent publication US8273787B2, “Activated cytotoxic compounds for attachment to targeting molecules for the treatment of mammalian disease conditions” (Onconova Therapeutics, Inc, priority 2006, dated 2012).

Tested on: xenograft
Conditions: weekly i.p. doses of 4 mg/kg over four months; cited from earlier work

Trastuzumab: Humanized mAb to epidermal growth factor receptor 2 (HER2/ErbB2)
Median survival time: 78 days | mice tumor free two months after treatment had been completed: no survivors | tumor regression: 7%

Trastuzumab-Geldanamycin: immunoconjugates composed of HERCEPTIN (Trastuzumab) and the cytotoxin Geldanamycin, reported by NCI groups [reference compound]
Median survival time: 145 days | mice tumor free two months after treatment had been completed: nearly one-third | tumor regression: 69%
